# Yeast mating assay B: variants of the scFv Ab-14

Reference: Li et al. 2023, doi:10.1038/s41467-023-39022-2. File: FLAb, binding data.

Target: peptide PDVDLGDISGINAS, taken from heptad repeat 2 (HR2) of SARS-CoV-2 spike.

Parent scFv Ab-14: VH joined to VL by the linker GGGGSGGGGSGGGGS. Changes lie in the heavy chain CDRs alone.
VH: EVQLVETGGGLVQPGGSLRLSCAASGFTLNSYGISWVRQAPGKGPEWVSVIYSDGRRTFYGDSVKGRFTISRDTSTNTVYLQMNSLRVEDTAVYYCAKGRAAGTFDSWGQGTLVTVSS
VL: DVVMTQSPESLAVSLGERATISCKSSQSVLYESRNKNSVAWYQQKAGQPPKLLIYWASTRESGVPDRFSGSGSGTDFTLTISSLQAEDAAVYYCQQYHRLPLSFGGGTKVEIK

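The starting antibody came from a phage panning campaign against this peptide. Designed CDR sequences, proposed from the first random library and measured here. Their group label is 14H_En_Gibbs (En: ensemble of fine-tuned language models; Gibbs: Gibbs sampling). Affinity was read by AlphaSeq, a pooled yeast mating assay with surface-displayed partners. After mating in shaken culture at 30 °C for 16 h, diploids were selected and their barcode pairs sequenced. A regression on co-assayed BCL2-family reference pairs converts the normalised counts of each replicate to an apparent Kd. Mating was done six times.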

The parent's heavy chain CDRs are GFTLNSYGIS, VIYSDGRRTFYGDSVK, GRAAGTFDS; each variant's own CDRs replace them letter for letter.
Scale: log10 of Kd in nM, estimated from mating counts; low values are strong binders.
"n.d." marks a missing value. The strain was present, yet no cells mated with the target were sequenced in that replicate, which points to weak or no binding.
The range of this assay differs from that of the first round, and the authors advise against merging the two.
Empty control strains, which show no peptide, gave a signal in 1% of pairings with all heavy chain designs; the median was 2.08 and 95% of these signals were weaker than 0.84. No background was subtracted. The control count says in how many pairings with the empty strains this scFv gave a signal, with their mean in brackets.
The authors averaged sequences with at least three values out of six and counted those with two or fewer as poor binders.
The parent sequence was in this pool as ten entries: three were never detected, three once, and four in most replicates, with averages from 0.34 to 2.37.

| CDR-H1 | CDR-H2 | CDR-H3 | log10 Kd (nM) by replicate | control signals |
|---|---|---|---|---|
| GFNLDEYGIS | VIYADGARTAYANKVK | GGNWMISVN | n.d. n.d. n.d. n.d. n.d. n.d. | 1 of 18 (2.14) |
| GEDLNEYGIS | VIYADGQRTYYDESVK | GKFAGSFFH | n.d. n.d. n.d. n.d. n.d. n.d. | 1 of 18 (1.65) |
| DFNLNEYGIS | VIYADGQRASYDDKVK | GQIGGTFDD | n.d. n.d. n.d. 2.59 n.d. n.d. | 0 of 18 |
| GEDLNEYGIS | VIYADGRRTYYDNSVK | GKFTGSFFH | n.d. n.d. n.d. n.d. n.d. n.d. | 0 of 18 |
| GFDLEEFGVS | VIYADGKRAAYTESVK | GHEGAHFTV | n.d. 2.22 n.d. n.d. n.d. n.d. | 0 of 18 |
| GFNLDEQGIS | VIYADGMRTVYSQNVK | GQNVEFTVF | n.d. 0.76 n.d. n.d. 0.07 n.d. | 0 of 18 |
| GFDVNEYGIS | VIYADGTRTAYANTVK | GKVVGVFGD | n.d. n.d. n.d. n.d. n.d. n.d. | 1 of 18 (0.84) |
| GYDIEEYGIS | VIYADGKRNAYANMVK | GKWAGAFVD | n.d. n.d. n.d. n.d. n.d. n.d. | 0 of 18 |
| GFNLDEYGVS | VIYADGNRTQYTEDVK | GTNVGAVDL | n.d. n.d. n.d. n.d. n.d. n.d. | 0 of 18 |
| GFDLEEMGVS | VIYADGIRTAVSEDVK | GNVAGTGDF | n.d. n.d. n.d. n.d. n.d. n.d. | 0 of 18 |
| GFDIKEQGIS | VIYADGMRTFYSEKVK | GQNSNGFDM | 0.82 0.43 0.40 0.76 0.85 0.47 | 1 of 18 (2.18) |
| GFEIEEYGIS | VIYADGQRKSYINSVK | GKVDVTVMY | -0.01 -0.59 -0.23 -0.92 -0.83 -0.41 | 0 of 18 |
| GEDLQKYGIS | VIYADGQRQYYSDDVK | GQVAGHFLV | n.d. n.d. n.d. n.d. n.d. n.d. | 0 of 18 |
| GFQLDEFGIS | VIYADGKRSSYVDDVK | GELTGGFKV | n.d. n.d. n.d. n.d. n.d. n.d. | 0 of 18 |
| GFDLMEYGIS | VIYADGVRTAYLDQVK | GEEGGAYYT | n.d. n.d. n.d. n.d. n.d. n.d. | 0 of 18 |
| GFDLNEYGIS | VIYADGHRTKYQNNVK | GGQADFALL | n.d. n.d. n.d. n.d. n.d. n.d. | 0 of 18 |
| GESLESYGIS | VIYADGMRTSYTNSVK | GVWAGTFMQ | 0.45 1.07 -0.40 -0.20 -0.05 0.39 | 1 of 18 (1.94) |
| GDDLEDYGIS | VIYADGRRRAYQENVK | GLYAGYFDV | n.d. n.d. n.d. n.d. n.d. n.d. | 0 of 18 |
| GFGLDEYGIS | VIYADGSRVFYADTVK | GLLGKLTVV | n.d. n.d. n.d. n.d. n.d. n.d. | 0 of 18 |
| GFDLNEYGIS | VIYADGMRQAVVQNVK | GKINVFDSV | n.d. n.d. n.d. n.d. n.d. n.d. | 0 of 18 |
| GFDIEKYGIS | VIYADGQRSAYDSSVK | GHEAGNFHV | n.d. n.d. n.d. n.d. n.d. n.d. | 0 of 18 |
| GFDLMEYGIS | VIYADGQRQVYQDNVK | GGDLVLNIV | n.d. n.d. n.d. n.d. n.d. n.d. | 0 of 18 |
| GMSLGEYGIS | VIYADGERTNYVSNFK | GVHAGTFDL | n.d. n.d. n.d. n.d. n.d. n.d. | 0 of 18 |
| GFDLKEQGIS | VIYADGMRTFYSDKVK | GQNSNGFDM | n.d. n.d. n.d. n.d. n.d. n.d. | 1 of 18 (2.26) |
| GYDIEEYGIS | VIYADGKRNAYANMVK | GKWAGTFVD | n.d. n.d. n.d. n.d. n.d. n.d. | 0 of 18 |
| GFDLDEYGIS | VIYADGGRVAYAQNVK | GLVGKGGDL | n.d. n.d. n.d. n.d. n.d. n.d. | 0 of 18 |
| GFDLNEYGIS | VIYADGLRSAYTDEVK | GKGDNIVFH | n.d. n.d. n.d. n.d. n.d. n.d. | 0 of 18 |
| GFSLNEYGIS | VIYADGKRNFYADSVK | GLISGFFDI | n.d. n.d. 2.13 n.d. n.d. n.d. | 0 of 18 |
| GFGLDEYGIS | VIYADGVRRSYVDNVK | GFDGEGSIV | n.d. n.d. n.d. n.d. n.d. n.d. | 0 of 18 |
| GMSLDEYGIS | VIYADGRRQAYSDEVK | GEHGWFATV | n.d. n.d. n.d. n.d. n.d. n.d. | 1 of 18 (3.19) |
| GFQLDEYGIS | VIYADGLRQEYAQKVK | GYNSFDLNQ | n.d. n.d. n.d. n.d. n.d. n.d. | 0 of 18 |
| GFDLDEYGIS | VIYADGSRTAYSKNVK | GGFDDMVLV | n.d. n.d. n.d. n.d. n.d. n.d. | 0 of 18 |
| GFQINEYGIS | VIYADGMRTGYADDVK | GMKDVNIFD | n.d. n.d. n.d. 3.65 n.d. n.d. | 0 of 18 |
| GFDLGEYGIS | VIYADGVRQSYVDKVK | GANGVDSLV | n.d. n.d. n.d. n.d. 3.30 2.77 | 1 of 18 (1.93) |
| GFDIQEYGIS | VIYADGRRKAYHQSVK | GAGDITAVV | n.d. n.d. n.d. n.d. n.d. n.d. | 0 of 18 |
| GFALDEYGIS | VIYADGSRSAYTSSVK | GVHNGDIMI | n.d. n.d. n.d. n.d. n.d. n.d. | 0 of 18 |
| GADIQEYGIS | VIYADGIRSAYAQDVK | GEIGSQFDI | n.d. 0.38 n.d. n.d. n.d. n.d. | 0 of 18 |
| GFNFDEYGIS | VIYADGLRRQYVDDVK | GSHSDVFNM | n.d. n.d. n.d. n.d. n.d. n.d. | 0 of 18 |
| GFNLDEYGVS | VIYADGHRTAYVNTVK | GKTGVVDDD | n.d. n.d. n.d. n.d. n.d. n.d. | 0 of 18 |
| GFQLDEQGIS | VIYADGVRCSYAQSVK | GANSGVIDV | 2.10 2.29 1.92 2.11 n.d. 1.80 | 2 of 18 (2.04) |
| GFDLGEYGIS | VIYADGVRKSYAQKVK | GKNGAISYV | n.d. n.d. n.d. n.d. n.d. n.d. | 0 of 18 |
| GFNLDEYGIS | VIYADGTRTSYRDNVK | GVTGGHDVT | n.d. n.d. n.d. n.d. n.d. n.d. | 0 of 18 |
| GFDLDEYGIS | VIYADGRRVVYQDKVK | GELAGTVDQ | n.d. n.d. n.d. n.d. n.d. n.d. | 0 of 18 |
| GFDINEYGVS | VIYADGMRSYYQDKVK | GSNGSLFDV | n.d. n.d. n.d. n.d. n.d. n.d. | 0 of 18 |
| GFDLEEYGIS | VIYADGSRTSYQESVK | GLYIGMLDM | n.d. n.d. n.d. n.d. n.d. n.d. | 0 of 18 |
| GFDLGEYGIS | VIYADGVRKSYAQKVK | GKNGAISSV | n.d. n.d. n.d. 1.88 n.d. n.d. | 1 of 18 (1.35) |
| GMGIDEYGIS | VIYADGMRSAYANSVK | GAHAGGIVW | n.d. n.d. n.d. n.d. 3.63 n.d. | 3 of 18 (1.84) |
| GFNLDEYGVS | VIYADGIRSTYADAVK | GKHGGAFFV | n.d. n.d. n.d. n.d. n.d. n.d. | 0 of 18 |

Top 3 of the variants detected in all replicates, tightest first:

| CDR-H1 | CDR-H2 | CDR-H3 | log10 Kd (nM) by replicate | control signals |
|---|---|---|---|---|
| GFEIEEYGIS | VIYADGQRKSYINSVK | GKVDVTVMY | -0.01 -0.59 -0.23 -0.92 -0.83 -0.41 | 0 of 18 |
| GESLESYGIS | VIYADGMRTSYTNSVK | GVWAGTFMQ | 0.45 1.07 -0.40 -0.20 -0.05 0.39 | 1 of 18 (1.94) |
| GFDIKEQGIS | VIYADGMRTFYSEKVK | GQNSNGFDM | 0.82 0.43 0.40 0.76 0.85 0.47 | 1 of 18 (2.18) |